Test results published in US20240124408A1 (Sanofi, priority 2020, published 2024).

Amino acid sequences for entries named in this document (tags omitted). Residues count along the entry.
UniProt F1SM15, 1-1104: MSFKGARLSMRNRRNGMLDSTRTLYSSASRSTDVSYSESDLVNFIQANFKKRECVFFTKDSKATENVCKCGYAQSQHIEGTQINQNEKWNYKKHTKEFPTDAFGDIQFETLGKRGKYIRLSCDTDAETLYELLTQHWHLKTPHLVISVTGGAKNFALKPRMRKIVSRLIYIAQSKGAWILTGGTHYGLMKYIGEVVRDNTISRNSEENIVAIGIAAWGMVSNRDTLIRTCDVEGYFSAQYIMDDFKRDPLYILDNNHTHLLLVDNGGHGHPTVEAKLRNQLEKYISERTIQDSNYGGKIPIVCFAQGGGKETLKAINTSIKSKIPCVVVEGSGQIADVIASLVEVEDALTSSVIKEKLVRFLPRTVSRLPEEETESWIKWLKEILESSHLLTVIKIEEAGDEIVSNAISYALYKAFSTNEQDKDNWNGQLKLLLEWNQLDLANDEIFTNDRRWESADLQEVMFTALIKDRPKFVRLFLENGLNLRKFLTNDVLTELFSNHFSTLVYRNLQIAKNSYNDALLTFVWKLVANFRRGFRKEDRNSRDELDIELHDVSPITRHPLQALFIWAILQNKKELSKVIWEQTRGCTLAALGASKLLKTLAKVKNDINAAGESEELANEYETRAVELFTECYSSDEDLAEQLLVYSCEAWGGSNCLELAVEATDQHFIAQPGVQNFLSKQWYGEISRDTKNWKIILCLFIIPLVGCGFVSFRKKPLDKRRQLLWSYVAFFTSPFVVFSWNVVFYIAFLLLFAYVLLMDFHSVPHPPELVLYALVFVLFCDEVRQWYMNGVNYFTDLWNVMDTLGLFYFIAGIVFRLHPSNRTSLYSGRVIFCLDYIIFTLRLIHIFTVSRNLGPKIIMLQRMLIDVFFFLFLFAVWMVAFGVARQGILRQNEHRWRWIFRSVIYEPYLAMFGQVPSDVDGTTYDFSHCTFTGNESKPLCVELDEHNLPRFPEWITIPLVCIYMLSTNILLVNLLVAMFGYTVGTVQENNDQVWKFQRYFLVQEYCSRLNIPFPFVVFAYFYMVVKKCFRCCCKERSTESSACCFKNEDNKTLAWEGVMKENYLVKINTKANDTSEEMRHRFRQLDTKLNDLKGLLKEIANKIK
UniProt Q7Z2W7, whole entry: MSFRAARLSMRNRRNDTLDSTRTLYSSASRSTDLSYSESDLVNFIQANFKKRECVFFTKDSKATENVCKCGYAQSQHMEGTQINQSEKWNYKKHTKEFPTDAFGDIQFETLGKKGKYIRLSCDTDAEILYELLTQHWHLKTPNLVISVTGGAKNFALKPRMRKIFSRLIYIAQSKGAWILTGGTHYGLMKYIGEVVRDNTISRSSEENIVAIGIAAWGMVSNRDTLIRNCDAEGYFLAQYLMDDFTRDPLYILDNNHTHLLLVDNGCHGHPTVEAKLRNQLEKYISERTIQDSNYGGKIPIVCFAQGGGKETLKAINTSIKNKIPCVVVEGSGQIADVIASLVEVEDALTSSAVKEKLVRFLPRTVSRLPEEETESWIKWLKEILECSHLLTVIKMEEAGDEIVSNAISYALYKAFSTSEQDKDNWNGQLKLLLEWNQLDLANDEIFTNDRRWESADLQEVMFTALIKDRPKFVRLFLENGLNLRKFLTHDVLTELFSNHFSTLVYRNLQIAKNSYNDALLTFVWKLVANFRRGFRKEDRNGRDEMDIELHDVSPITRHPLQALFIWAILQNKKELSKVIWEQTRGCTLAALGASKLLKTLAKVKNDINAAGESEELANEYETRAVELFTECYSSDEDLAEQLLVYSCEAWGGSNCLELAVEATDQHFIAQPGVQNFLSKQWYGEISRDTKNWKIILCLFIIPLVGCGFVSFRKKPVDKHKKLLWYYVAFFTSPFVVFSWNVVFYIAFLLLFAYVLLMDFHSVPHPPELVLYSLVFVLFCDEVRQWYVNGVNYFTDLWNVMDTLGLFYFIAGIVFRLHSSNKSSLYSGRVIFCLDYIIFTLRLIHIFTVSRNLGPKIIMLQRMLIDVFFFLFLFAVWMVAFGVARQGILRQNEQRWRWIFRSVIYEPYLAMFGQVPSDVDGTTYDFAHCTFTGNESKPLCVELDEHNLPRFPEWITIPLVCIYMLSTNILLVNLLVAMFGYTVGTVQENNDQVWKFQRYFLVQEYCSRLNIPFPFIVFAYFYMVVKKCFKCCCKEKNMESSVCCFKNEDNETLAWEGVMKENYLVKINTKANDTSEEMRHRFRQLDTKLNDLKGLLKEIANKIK

Assays:
pig TRPM8 = pig TRPM8 (Sus scrofa, UniProt F1SM15); test: In vitro pig TRPM8 fluorescence calcium flux assay (recombinant CHO cells, Fluo4-AM, FDSS6000); conditions: read-out: Pig TRPM8 Calcium Flux EC50; recombinant CHO cells expressing pig TRPM8; menthol-related EC50, normalized to 100 μM menthol
Experimental: (§1) In Vitro Pig and Human TRPM8 Fluorescence Calcium Flux Assays
(§2) For functional expression of TRPM8, the full-length cDNA encoding human (NM_024080) and pig (XM_001927892.1) TRPM8 sequences were subcloned into p658 and pcDNA5/FRT/TO mammalian expression vectors, respectively. Engineered recombinant CHO cell lines expressing human or pig TRPM8 were generated. Culture media was Ham-F12 with 10% FCS for both lines, and for the pig cell line only 400 μg/ml hygromycin B and 30 μg/mL blasticidin were added as selection antibiotics (all reagents were obtained from Invitrogen, Fisher Scientific). […]
(§3) For calcium flux assays, cells were plated into clear base poly-D-lysine coated 384-well plates (BD Biosciences, NJ USA) at a density of 15,000 cells per well in appropriate culture medium and grown overnight. […] Following incubation, plates were inserted into a FDSS6000 instrument (Hamamatsu, Photonics, Japan) instrument, where cells were challenged with compounds of the formula (at varying concentrations) and intracellular calcium was measured kinetically for 3 min after addition.
(§4) This protocol allowed the determination of an EC50 value, from the sixteen-point dose response data, for each compound of the formula tested. […] The dose response curves from the average of wells for each data point were analyzed by using nonlinear regression of sigmoidal dose response (formula 205). […]

human TRPM8 = human TRPM8 (Homo sapiens, UniProt Q7Z2W7); test: In vitro human TRPM8 fluorescence calcium flux assay (recombinant CHO cells, Fluo4-AM, FDSS6000); conditions: read-out: Human TRPM8 Calcium Flux EC50; recombinant CHO cells expressing human TRPM8; menthol-related EC50, normalized to 100 μM menthol
Experimental: as §1, §2, §3, §4

EC50 (pig TRPM8): 327 nM
EC50 (human TRPM8): 575 nM
SMILES: CC(C)[C@@H]1CC[C@@H](C)C[C@@]1(O)C(=O)NCCc1cccc(CC(=O)O)c1
